Cyclic peptide permeability, from CycPeptMPDB

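The data file gives no further conditions (lipid, pH, time, direction or concentration), and values from different papers need not be comparable. The list need not hold all peptides of the study. Peptides that the database sets to -10, its floor, are left out.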

PAMPA is the parallel artificial membrane permeability assay, which has no cells and reads passive diffusion. Caco-2 values are permeabilities across monolayers of Caco-2 human intestinal cells. P is given in units of 10^-6 cm/s (from log10 values with two decimals); larger means faster passage.

CCCC[C@@H]1NC(=O)[C@H](CC(C)C)N(C)C(=O)CN(CCCc2ccccc2)C(=O)[C@H](C)NC(=O)CN(Cc2cc(CC(C)C)on2)C(=O)[C@H]2CCCN2C1=O has PAMPA 4.8 × 10^-6 cm/s. Listed for CCCC[C@@H]1NC(=O)[C@H](CC(C)C)N(C)C(=O)CN(Cc2ccccc2)C(=O)[C@H](C)NC(=O)CN(Cc2cc(CC(C)C)on2)C(=O)[C@H]2CCCN2C1=O: PAMPA 7.9 × 10^-6 cm/s. For CCCC[C@@H]1NC(=O)[C@H](CC(C)C)N(C)C(=O)CN(CC2CCOCC2)C(=O)[C@H](C)NC(=O)CN(Cc2ccccc2Cn2cccn2)C(=O)[C@H]2CCCN2C1=O the data give PAMPA 0.21 × 10^-6 cm/s. The entry for CCCC[C@@H]1NC(=O)[C@H](CC(C)C)N(C)C(=O)CN(CCCc2cnn(C)c2)C(=O)[C@H](CC(C)C)NC(=O)CN(Cc2ccc(Cl)cc2)C(=O)[C@H]2CCCN2C1=O lists PAMPA 3 × 10^-6 cm/s. The entry for CCCC[C@@H]1NC(=O)[C@H](CC(C)C)N(C)C(=O)CN(CCCN2CCCC2=O)C(=O)[C@H](Cc2ccccc2)NC(=O)CN(CC(C)C)C(=O)[C@H]2CCCN2C1=O lists PAMPA 0.93 × 10^-6 cm/s. CCCC[C@@H]1NC(=O)[C@H](CC(C)C)N(C)C(=O)CN(Cc2ccccc2)C(=O)[C@H](CC(C)C)NC(=O)CN(Cc2ccc(Cl)cc2)C(=O)[C@H]2CCCN2C1=O is reported with PAMPA 0.23 × 10^-6 cm/s. CCCC[C@@H]1NC(=O)[C@H](CC(C)C)N(C)C(=O)CN(Cc2ccccc2)C(=O)[C@H](Cc2ccc3ccccc3c2)NC(=O)CN(Cc2ccc3c(c2)OCO3)C(=O)[C@H]2CCCN2C1=O has PAMPA 0.003 × 10^-6 cm/s.

CCCC[C@@H]1NC(=O)[C@H](CC(C)C)N(C)C(=O)CN(CCCc2ccccc2)C(=O)[C@H](C)NC(=O)CN(CCCCc2ccccc2)C(=O)[C@H]2CCCN2C1=O has PAMPA 0.76 × 10^-6 cm/s. CCCCCN1CC(=O)N(C)[C@@H](CC(C)C)C(=O)N[C@@H](CCCC)C(=O)N2CCC[C@@H]2C(=O)N(Cc2ccccc2Cn2cccn2)CC(=O)N[C@@H](CC(C)C)C1=O is reported with PAMPA 2.6 × 10^-6 cm/s. CCCCCN1CC(=O)N(C)[C@@H](CC(C)C)C(=O)N[C@@H](CCCC)C(=O)N2CCC[C@@H]2C(=O)N(Cc2cc(CC(C)C)on2)CC(=O)N[C@@H](Cc2ccc3ccccc3c2)C1=O is reported with PAMPA 0.011 × 10^-6 cm/s. Listed for CCCC[C@@H]1NC(=O)[C@H](CC(C)C)N(C)C(=O)CN(CCCc2ccccc2)C(=O)[C@H](C)NC(=O)CN(CC(C)C)C(=O)[C@H]2CCCN2C1=O: PAMPA 11 × 10^-6 cm/s. For CCCC[C@@H]1NC(=O)[C@H](CC(C)C)N(C)C(=O)CN(CCCc2ccccc2)C(=O)[C@H](Cc2ccc3ccccc3c2)NC(=O)CN(Cc2ccc3c(c2)OCO3)C(=O)[C@H]2CCCN2C1=O the data give PAMPA 0.00051 × 10^-6 cm/s. CCCC[C@@H]1NC(=O)[C@H](CC(C)C)N(C)C(=O)CN(CCCc2cnn(C)c2)C(=O)[C@H](Cc2ccc3ccccc3c2)NC(=O)CN(CCC)C(=O)[C@H]2CCCN2C1=O is reported with PAMPA 3 × 10^-6 cm/s. Listed for CCCCCN1CC(=O)N(C)[C@@H](CC(C)C)C(=O)N[C@@H](CCCC)C(=O)N2CCC[C@@H]2C(=O)N(CC)CC(=O)N[C@@H](CC(C)C)C1=O: PAMPA 11 × 10^-6 cm/s.

CCCC[C@@H]1NC(=O)[C@H](CC(C)C)N(C)C(=O)CN(CCCN2CCCC2=O)C(=O)[C@H](CC(C)C)NC(=O)CN(Cc2ccc(Cl)cc2)C(=O)[C@H]2CCCN2C1=O is reported with PAMPA 2.1 × 10^-6 cm/s and Caco-2 0.68 × 10^-6 cm/s. Listed for CCCC[C@@H]1NC(=O)[C@H](CC(C)C)N(C)C(=O)CN(CCOc2ccccc2)C(=O)[C@H](CC(C)C)NC(=O)CN(Cc2ccccc2Cn2cccn2)C(=O)[C@H]2CCCN2C1=O: PAMPA 0.59 × 10^-6 cm/s. CCCCCN1CC(=O)N(C)[C@@H](CC(C)C)C(=O)N[C@@H](CCCC)C(=O)N2CCC[C@@H]2C(=O)N(Cc2ccc3c(c2)OCO3)CC(=O)N[C@@H](Cc2ccc3ccccc3c2)C1=O has PAMPA 0.0013 × 10^-6 cm/s. CCCC[C@@H]1NC(=O)[C@H](CC(C)C)N(C)C(=O)CN(CCc2cccnc2)C(=O)[C@H](C)NC(=O)CN(CCCOC(C)C)C(=O)[C@H]2CCCN2C1=O is reported with PAMPA 0.18 × 10^-6 cm/s. The entry for CCCC[C@@H]1NC(=O)[C@H](CC(C)C)N(C)C(=O)CN(CCCc2cnn(C)c2)C(=O)[C@H](Cc2ccc3ccccc3c2)NC(=O)CN(CC)C(=O)[C@H]2CCCN2C1=O lists PAMPA 3.4 × 10^-6 cm/s. For CCCC[C@@H]1NC(=O)[C@H](CC(C)C)N(C)C(=O)CN(CC2CCCCC2)C(=O)[C@H](Cc2ccc3ccccc3c2)NC(=O)CN(CCN2CCOCC2)C(=O)[C@H]2CCCN2C1=O the data give PAMPA 0.38 × 10^-6 cm/s. Listed for CCCC[C@@H]1NC(=O)[C@H](CC(C)C)N(C)C(=O)CN(CCCc2cnn(C)c2)C(=O)[C@H](CC(C)C)NC(=O)CN(CCCOC(C)C)C(=O)[C@H]2CCCN2C1=O: PAMPA 3.7 × 10^-6 cm/s.

For CCCC[C@@H]1NC(=O)[C@H](CC(C)C)N(C)C(=O)CN(CC2CCCCC2)C(=O)[C@H](Cc2ccc3ccccc3c2)NC(=O)CN(Cc2ccccc2Cn2cccn2)C(=O)[C@H]2CCCN2C1=O the data give PAMPA 0.015 × 10^-6 cm/s.

Extract of 2 entries:

{"smiles": "CCCC[C@@H]1NC(=O)[C@H](CC(C)C)N(C)C(=O)CN(CCCN2CCCC2=O)C(=O)[C@H](Cc2ccccc2)NC(=O)CN(CC(C)C)C(=O)[C@H]2CCCN2C1=O", "PAMPA (10^-6 cm/s)": "0.93"}
{"smiles": "CCCC[C@@H]1NC(=O)[C@H](CC(C)C)N(C)C(=O)CN(CC2CCOCC2)C(=O)[C@H](C)NC(=O)CN(Cc2ccccc2Cn2cccn2)C(=O)[C@H]2CCCN2C1=O", "PAMPA (10^-6 cm/s)": "0.21"}

Data: CycPeptMPDB; original report Furukawa et al. 2016, doi:10.1021/acs.jmedchem.6b01246.